# Screening data deposited in PubChem by several laboratories.
# This is a sample that favours compounds with a hit; in the whole collection about 4.2% have one here.
# MC4R antag cAMP: human MC4R antagonism in cAMP assay | P32245 | MC4R-expressing cells, MTII-stimulated cAMP, LANCE TR-FRET | inhibition, % at 6.5 µM | actives 0.48% (n = 360,000) | AID 540295;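 active = inhibition above its plate's cutoff, the mean of tested wells on that plate plus 3 SD, cut at about 29% in these data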;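 note: 0% = Melanotan II alone and 100% = Melanotan II plus saturating MCL0020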
#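 Material: U2OS-MC4R stable cell line | Reagent: Melanotan II challenge after compound preincubation | Doses: One concentration, 6.5 µM nominal | Incubation: 30-min compound preincubation, 1-h Melanotan II challenge, 1-h detection, room temperature | Signal: TR-FRET cAMP assay | Replicates: One well per compound, no replicates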
# UUG fidelity: modulators of start codon recognition fidelity in yeast; AID 602363; activity score, % at 18.7 µM; S. cerevisiae UUG-firefly luciferase reporter, luminescence/redox ratio; 0.13% of 350,000 active;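 active = replicate mean at a twofold rise or more, about +100% in these data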;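 note: firefly luciferase made from a UUG start codon reports start codon fidelity; reporter light over untreated wells divided by growth signal over untreated wells; some hits fall short of that in this replicate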
# HDAC3 inh: blocks human histone deacetylase 3 | O15379 | actives 0.15% (n = 320,000) | recombinant HDAC3, fluorogenic peptide/trypsin coupled, fluorescence | inhibition, % at 8.3 µM; in the data active = inhibition above about 26%, passing the limit was not always enough; inconclusive = no clear call, values can overlap the other calls
# MC4R ag barr: activates human MC4R beta-arrestin recruitment; P32245; U2OS MC4R beta-arrestin complementation, luminescence; percent of melanotan II response, DMSO zero; activation, % at 8.9 µM; actives 0.98% (n = 360,000);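 active = activation above a per-plate cutoff, the mean activation of sample wells on that plate plus 3 SD, cut at about 8% in these data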
# ALR H2O2 inh: inhibitors of human ALR sulfhydryl oxidase, primary screen, biochemical, H2O2 detection, HRP-luminol luminescence, single point | FAD-linked sulfhydryl oxidase ALR (Homo sapiens), P55789 | purified ALR, DTT oxidation | inhibition, % (concentration not given with the values) | actives 3.8% (n = 290,000) | AID 485317, 2010;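 active = mean and each replicate at 75% or more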;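 also: stock transfer was 7.5 nL into about 7.5 µL; 0% = neutral wells and 100% = wells with inactivated enzyme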
# NALP1 inh: inhibitors of NALP1 inflammasome in yeast | actives 0.61% (n = 280,000) | inhibition, % at 10 µM | S. cerevisiae NALP1/ASC/caspase-1 growth, X-gal OD620, 72 h; in the data active = inhibition mostly above about 24%, no sharp cut-off; inactive = mostly below about 32%
# MC4R barr ag: human MC4R beta-arrestin agonism confirmation; shares compounds with MC4R ag barr; U2OS MC4R beta-arrestin recruitment, luminescence; scaled DMSO 0%, Melanotan II 100%; activation, % at 8.9 µM; actives 31% (n = 2,400); AID 602192;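 active = mean activation across replicates above the hit cutoff set in the earlier primary screen, cut at about 8% in these data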
# MOR-DOR barr ag: OPRM1-OPRD1 heterodimer agonism counter-screen; actives 5.8% (n = 2,400); activation, % at 9.2 µM; U2OS PathHunter beta-arrestin, beta-gal luminescence; percent of deltorphin B response, DMSO zero; shares compounds with MC4R ag barr; AID 602194;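 active = mean activation across replicates exceeds the hit threshold derived in the earlier primary screen, cut at about 18% in these data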;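 note: 100% = deltorphin B at 0.9 µM final and 0% = DMSO alone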
# Numbers without * were called inactive; ? = inconclusive; . = no result given.
SMILES,MC4R antag cAMP,UUG fidelity,HDAC3 inh,MC4R ag barr,ALR H2O2 inh,NALP1 inh,MC4R barr ag,MOR-DOR barr ag
C[C@H](CO)N1C[C@H](C)[C@H](CN(C)Cc2ccc3c(c2)OCO3)Oc2ccc(NC(=O)CCC(F)(F)F)cc2CC1=O,.,-3.7,.,.,.,.,.,.
O=C(Nc1ccc(F)cc1F)c1c(C(F)(F)F)ccnc1Oc1cccc(C(F)(F)F)c1,-1.6,-10.1,-5.0,19.9*,.,0.4,0.7,3.5
O=C(Nc1ccc(F)cc1F)c1c(C(F)(F)F)ccnc1Oc1ccc(Cl)cc1,3.0,-9.1,-0.5,2.8,13.0,14.9,.,.
O=C(NC(=S)Nc1ccc(N2CCOCC2)cc1)c1ccc(Cl)cc1,2.0,.,-10.0,13.9*,-7.5,0.6,1.7,1.8
CC(C)(C)c1ccc(C(=O)NC(=S)Nc2ccc(N3CCOCC3)cc2)cc1,5.6,.,1.7,1.4,17.9,18.6,.,.
O=C(/C=C/c1ccc(Cl)cc1)NC(=S)Nc1ccc(N2CCOCC2)c(Cl)c1,11.0,-8.4,-0.7,15.0*,0.3,-4.9,7.2,4.5
O=C(/C=C/c1ccc(Cl)cc1)Nc1ccccc1N1CCOCC1,2.3,-0.4,-2.0,9.7*,.,29.1,3.4,2.4
O=C(OCc1cc(=O)n2c(n1)sc1ccccc12)c1ccc(O)cc1O,-3.4,.,-3.8,16.7*,-7.3,-11.7,0.9,4.7
O=C(OCc1cc(=O)n2c(n1)sc1ccccc12)c1cccc(O)c1,1.8,-12.3,1.2,0.1,.,27.6,.,.
Cc1ccc(S(=O)(=O)N(C)C[C@H]2Oc3c(NC(=O)Nc4ccc(F)cc4)cccc3C(=O)N([C@H](C)CO)C[C@H]2C)cc1,.,-8.8,.,.,.,.,.,.
C/C(=N/NC(=O)CSCc1ccc(Cl)cc1)c1cccc(NC(=O)c2ccccc2)c1,21.0,-4.9,1.6,21.6*,-1.9,18.6,4.6,10.9
CO[C@H]1CN(C)C(=O)c2ccc(NS(C)(=O)=O)cc2OC[C@@H](C)N(C(=O)C2CCOCC2)C[C@H]1C,.,7.4,.,.,.,.,.,.
CCCc1ccc(OCc2nc(-c3ccc(NC(=O)c4ccco4)cc3)no2)cc1,6.2,-3.9,-4.2,5.1,-1.4,0.3,.,.
Cc1ccccc1OCc1nc(-c2ccc(NC(=O)c3ccco3)cc2)no1,4.0,-25.9,0.3,22.9*,63.7,-73.7,-0.3,4.6
Cc1ccccc1OCc1nc(-c2ccc(NC(=O)c3cccs3)cc2)no1,13.6,.,-6.9,15.7*,4.3,29.6,5.6,4.8
Cc1noc(C)c1NC(=O)Nc1ccc2c(c1)C(=O)N([C@@H](C)CO)C[C@@H](C)[C@H](CN(C)C(=O)NC(C)C)OCCCC[C@H](C)O2,.,16.0,.,.,.,.,.,.
COC(=O)C1=C(C)N(Cc2ccccc2)C(=NCC(C)C)N[C@H]1c1cccc(C(F)(F)F)c1,7.8,-6.6,-7.6,15.7*,-13.9,.,17.5*,23.2*
CC(CCc1ccccc1)NC(=O)c1ccc(NC(=O)c2ccc(Cl)cc2Cl)cc1 (stereo not drawn),1.1,.,2.3,9.9*,-2.2,19.6,6.8,5.8
CC(CCc1ccccc1)NC(=O)c1ccc(NC(=O)c2ccccc2)cc1 (stereo not drawn),-4.5,2.4,6.5,0.4,-16.4,36.5,.,.
CCCc1cc(-c2n[nH]c(C)c2-c2ccc(C(=O)OCC)o2)c(O)cc1O,6.3,.,?,12.9*,27.6,-2.6,5.0,3.5

# Quoted from the listing:
# MOR-DOR barr ag, COC(=O)C1=C(C)N(Cc2ccccc2)C(=NCC(C)C)N[C@H]1c1cccc(C(F)(F)F)c1 → 23.2*
# UUG fidelity, O=C(/C=C/c1ccc(Cl)cc1)Nc1ccccc1N1CCOCC1 → -0.4
# ALR H2O2 inh, Cc1ccccc1OCc1nc(-c2ccc(NC(=O)c3cccs3)cc2)no1 → 4.3

# New compounds follow
SMILES,MC4R antag cAMP,UUG fidelity,HDAC3 inh,MC4R ag barr,ALR H2O2 inh,NALP1 inh,MC4R barr ag,MOR-DOR barr ag
CCCc1cc(C(=O)Cc2ccc(C(=O)OCC)o2)c(O)cc1O,4.3,-14.5,-3.2,1.8,17.7,6.5,.,.
Nc1cccc(-c2nc3cc(S(=O)(=O)c4ccc5oc(-c6cccc(N)c6)nc5c4)ccc3o2)c1,-2.4,-19.8,2.9,13.7*,2.0,-0.8,4.9,7.7
C[C@H]1CN([C@@H](C)CO)C(=O)c2cccc(NC(=O)c3cnccn3)c2O[C@H]1CN(C)C(=O)Nc1ccc2c(c1)OCO2,.,12.1,.,.,.,.,.,.
CCOc1ccc(NC(=O)c2nnn(CC(=O)Nc3ccccc3OCC)c2N)cc1,13.2,-7.3,3.9,2.3,-7.9,29.7,.,.
CCOc1ccc(OCC)c(NC(=O)c2nnn(CC(=O)Nc3cc(C)cc(C)c3)c2N)c1,0.4,-15.8,-14.4,42.2*,0.5,-10.5,18.5*,8.6
C[C@@H]1CN([C@H](C)CO)C(=O)c2cccc(NS(=O)(=O)c3ccc(Cl)cc3)c2O[C@@H]1CN(C)CC1CCCCC1,.,0.7,.,.,.,.,.,.
C/C(=N\Nc1ccc(C#N)cc1[N+](=O)[O-])c1ccc(O)cc1,4.4,.,-5.8,10.2*,7.2,7.8,5.5,7.8
CC(C)Oc1ccc(C(=O)NC2CCSc3ccccc32)cc1 (stereo not drawn),3.8,-10.7,4.6,-2.7,-9.4,7.9,.,.
CCCOc1ccc(C(=O)NC2CCSc3ccccc32)cc1 (stereo not drawn),7.5,-21.6,0.5,17.0*,-15.7,15.8,1.4,6.5
C[C@@H]1CCCCO[C@H](CN(C)S(=O)(=O)c2cccs2)[C@H](C)CN([C@@H](C)CO)C(=O)c2cc(NS(=O)(=O)c3ccccc3)ccc2O1,.,-4.6,.,.,.,.,.,.
Cc1ccc2nsnc2c1NC(=O)c1sc2ccccc2c1Cl,6.0,.,-8.4,12.9*,-10.5,18.1,3.5,4.3
C[C@H](CO)N1C[C@H](C)[C@@H](CN(C)S(C)(=O)=O)Oc2ccc(NS(=O)(=O)c3ccccc3)cc2CC1=O,.,-4.4,.,.,.,.,.,.
CC(=O)N(C)C[C@H]1Oc2ncc(-c3ccc(C#N)cc3)cc2C(=O)N([C@@H](C)CO)C[C@H]1C,.,-2.4,.,.,.,.,.,.
CCn1c(COc2ccc3c(c2)OCO3)nnc1SCC(=O)c1ccc(Cl)cc1,-7.3,3.9,3.6,9.9*,4.3,16.5,1.7,3.9
C[C@@H]1CN([C@@H](C)CO)C(=O)c2cc(NC(=O)c3ccncc3)ccc2O[C@H]1CN(C)Cc1ccc2c(c1)OCO2,.,-4.9,.,.,.,.,.,.
CN(C)S(=O)(=O)c1ccc2[nH]cc(/C=C/c3nc4ccccc4c(=O)n3-c3ccccc3)c2c1,1.3,-17.8,-2.3,12.6*,1.9,11.9,9.2*,5.4
CCn1c(/C=C/c2c[nH]c3ccccc23)nc2ccccc2c1=O,-2.3,.,.,4.3,8.9,3.5,.,.
Cc1ccc(NC(=O)CCC(=O)OCC(=O)c2ccc(Oc3ccc([N+](=O)[O-])cc3)cc2)cc1,-2.7,.,-1.6,25.6*,-6.7,4.8,-0.6,5.6
COc1ccc(NC(=O)CCC(=O)OCC(=O)c2ccc(Oc3ccc([N+](=O)[O-])cc3)cc2)cc1,-3.4,.,-5.5,-1.3,0.8,25.4,.,.

# Arranged by value in MC4R ag barr (falling): 3 from the list above.
Molecule	MC4R ag barr
O=C(/C=C/c1ccc(Cl)cc1)NC(=S)Nc1ccc(N2CCOCC2)c(Cl)c1	15.0*
CCn1c(COc2ccc3c(c2)OCO3)nnc1SCC(=O)c1ccc(Cl)cc1	9.9*
CC(C)Oc1ccc(C(=O)NC2CCSc3ccccc32)cc1 (stereo not drawn)	-2.7
